Results on 1 substance are retold here after paper PMC12738692, “Identification, characterization, and structure-activity relationship of the ASIC3-selective peptide WRPRFa” (Communications Chemistry, 2025).

The experiment deals with ASIC313 concatemeric heterotrimer (ASIC3-ASIC1a-ASIC3 in tandem) (human) (UniProt Q9UHC3).

Take WRPRFa (peptide): the EC50 of I3s/Ipk, escalating WRPRFa before pH 6.3, manual patch clamp, CHO cells was more than 12.6 µM.
